# Patent US10213415B2, “Compounds as opioid receptor modulators” (JANSSEN PHARMACEUTICA NV, priority 2004, dated 2019)
# Sequences of proteins named here, by UniProt entry; tags and fusion partners are left off.
# UniProt P33533, whole entry: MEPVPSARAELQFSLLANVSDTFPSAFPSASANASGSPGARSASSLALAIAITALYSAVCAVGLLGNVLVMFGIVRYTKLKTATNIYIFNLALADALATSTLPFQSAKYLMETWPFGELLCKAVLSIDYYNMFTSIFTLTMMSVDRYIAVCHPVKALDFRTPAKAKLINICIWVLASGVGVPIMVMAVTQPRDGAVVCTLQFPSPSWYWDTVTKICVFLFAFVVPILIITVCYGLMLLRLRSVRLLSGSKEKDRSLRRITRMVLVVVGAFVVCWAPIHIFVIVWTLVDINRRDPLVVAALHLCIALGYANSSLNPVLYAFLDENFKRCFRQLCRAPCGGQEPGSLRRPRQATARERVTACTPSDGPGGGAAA
# UniProt P33535, whole entry: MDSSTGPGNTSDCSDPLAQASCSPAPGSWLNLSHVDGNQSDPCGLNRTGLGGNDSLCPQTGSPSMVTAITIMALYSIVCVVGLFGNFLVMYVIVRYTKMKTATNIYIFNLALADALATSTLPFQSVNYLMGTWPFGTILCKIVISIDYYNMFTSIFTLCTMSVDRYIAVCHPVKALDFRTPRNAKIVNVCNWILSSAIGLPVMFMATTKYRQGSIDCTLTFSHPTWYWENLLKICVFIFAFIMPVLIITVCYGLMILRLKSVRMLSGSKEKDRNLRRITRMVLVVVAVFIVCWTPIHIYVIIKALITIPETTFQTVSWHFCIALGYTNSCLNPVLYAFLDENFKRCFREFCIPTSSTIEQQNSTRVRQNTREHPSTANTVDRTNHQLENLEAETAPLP
# UniProt P35372, whole entry: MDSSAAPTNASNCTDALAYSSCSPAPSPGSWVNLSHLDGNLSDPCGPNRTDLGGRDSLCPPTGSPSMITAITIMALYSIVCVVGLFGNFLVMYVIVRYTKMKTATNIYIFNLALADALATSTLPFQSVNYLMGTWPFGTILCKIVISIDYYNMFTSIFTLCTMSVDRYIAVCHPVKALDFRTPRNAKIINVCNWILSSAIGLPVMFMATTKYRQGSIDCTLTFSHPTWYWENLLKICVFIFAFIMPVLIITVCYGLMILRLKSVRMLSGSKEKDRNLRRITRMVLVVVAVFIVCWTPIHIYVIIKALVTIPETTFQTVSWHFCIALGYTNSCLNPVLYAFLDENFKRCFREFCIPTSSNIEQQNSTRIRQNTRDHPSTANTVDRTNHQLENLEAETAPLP
# UniProt P32300, whole entry: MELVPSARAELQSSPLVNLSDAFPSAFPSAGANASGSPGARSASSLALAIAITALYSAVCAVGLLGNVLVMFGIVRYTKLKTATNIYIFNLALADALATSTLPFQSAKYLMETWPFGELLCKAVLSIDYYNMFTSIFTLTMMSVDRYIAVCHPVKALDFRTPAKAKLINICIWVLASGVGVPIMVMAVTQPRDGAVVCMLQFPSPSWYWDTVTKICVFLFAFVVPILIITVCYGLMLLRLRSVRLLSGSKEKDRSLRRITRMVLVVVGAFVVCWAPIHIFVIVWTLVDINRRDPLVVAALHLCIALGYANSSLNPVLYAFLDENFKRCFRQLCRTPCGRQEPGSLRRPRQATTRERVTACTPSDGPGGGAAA
# What was measured:
# delta opioid receptor [1] = molecular target: T1, delta opioid receptor (Rattus norvegicus, UniProt P33533); experiment: Rat Brain Delta Opioid Receptor Binding Assay ([3H]DPDPE); settings: read-out: r Ki δ, rat forebrain membranes, margin of error 10-20%
# Procedure: Male, Wistar rats (150-250 g, VAF, Charles River, Kingston, N.Y.) are killed by cervical dislocation, and their brains removed and placed immediately in ice cold Tris HCl buffer (50 mM, pH 7.4). The forebrains are separated from the remainder of the brain by a coronal transection, beginning dorsally at the colliculi and passing ventrally through the midbrain-pontine junction. After dissection, the forebrains are homogenized in Tris buffer in a Teflon® glass homogenizer. The homogenate is diluted to a concentration of 1 g of forebrain tissue per 80 mL Tris and centrifuged at 39,000×g for 10 min. The pellet is resuspended in the same volume of Tris buffer containing 5 mM MgCl2 with several brief pulses from a Polytron homogenizer. This particulate preparation is used for the delta opioid binding assays. Following incubation with the delta selective peptide ligand ˜4 nM [^3H]DPDPE at 25° C. for 2.5 h in a 96-well plate with total volume of 1 mL, the plate contents are filtered through Wallac filtermat B sheets on a Tomtec 96-well harvester. The filters are rinsed three times with 2 mL of 10 mM HEPES (pH 7.4), and dried in a microwave oven 2 min twice. To each sample area 2×50 μL of Betaplate Scint scintillation fluid (LKB) is added and analyzed on a LKB (Wallac) 1205 BetaPlate liquid scintillation counter.
# The data are used to calculate either the % inhibition compared to control binding (when only a single concentration of test compound is evaluated) or a Ki value (when a range of concentrations is tested). % inhibition is calculated as: [(total dpm−test compound dpm)/(total dpm−nonspecific dpm)]*100. Kd and Ki values were calculated using GraphPad PRISM data analysis program.
# delta opioid receptor [2] = molecular target: T1, delta opioid receptor; experiment: Rat Brain Delta Opioid Receptor Binding Assay-Version 1a ([3H]naltrindole); settings: read-out: r Ki δ Ver. 1a; rat forebrain membranes, 0.1 nM [3H]naltrindole; margin of error 10-20%
# Procedure: Male, Wistar rats (150-250 g, VAF, Charles River, Kingston, N.Y.) were killed by cervical dislocation, and their brains removed and placed immediately in ice-cold Tris HCl buffer (50 mM, pH 7.4). The forebrains were separated from the remainder of the brain by a coronal transection, beginning dorsally at the colliculi and passing ventrally through the midbrain-pontine junction. After dissection, the forebrains were homogenized in Tris buffer in a Teflon®-glass homogenizer. The homogenate was diluted to a concentration of 1 g of forebrain tissue per 80 mL Tris and centrifuged at 39,000×g for 10 min. The pellet was resuspended in the same volume of Tris buffer containing 5 mM MgCl2 with several brief pulses from a Polytron homogenizer. This particulate preparation was used for the delta opioid binding assay. Following incubation with 0.1 nM of the delta selective ligand [^3H]naltrindole at 25° C. for 2.5 h in a 96-well plate with total 1 mL, the plate contents were filtered through Wallac filtermat B sheets on a Tomtec 96-well harvester. […] To each sample area, Betaplate Scint scintillation fluid (LKB) was added and the resulting radioactivity quantified on a LKB (Wallac) 1205 BetaPlate liquid scintillation counter. Kd and Ki values were calculated using the GraphPad PRISM data analysis program.
# mu opioid receptor = mu opioid receptor (Rattus norvegicus, UniProt P33535); experiment: Rat Brain Mu Opioid Receptor Binding Assay (and Version 2a, [3H]DAMGO); settings: read-out: r Ki μ, rat forebrain membranes, margin of error 10-20%
# human mu opioid receptor = human mu opioid receptor (Homo sapiens, UniProt P35372); experiment: Human Mu Opioid Receptor Binding Assay (CHO membranes, 3H-Damgo); settings: read-out: hKi μ
# [3] = molecular target: delta opioid receptor (NG108-15 cell membranes) (Mus musculus, UniProt P32300); experiment: Delta Opioid Receptor Functional Assay: [35S]GTPγS Binding in NG108-15 Cell Membranes, Version 2
# Procedure: NG108-15 cell membranes were purchased from Applied Cell Sciences (Rockville, Md.). 8 mg/ml of membrane protein suspended in 10 mM TRIS-HC pH 7.2, 2 mM EDTA, 10% sucrose.
# Membranes were maintained at 4-8° C. A portion (1 ml) of membranes was added into 10 ml cold binding assay buffer. The assay buffer contained 50 mM Tris, pH 7.6, 5 mM MgCl2, 100 mM NaCl, 1 mM DTT and 1 mM EGTA. The membrane suspension was homogenized with a Polytron for 2 times and centrifuged at 3000 rpm for 10 min. The supernent was then centrifuged at 18,000 rpm for 20 min. The pellet was saved in a tube and 10 ml assay buffer was added into the tube. The pellet and buffer were mixed with a Polytron.
# The pellet membranes (75 μg/ml) were preincubated with SPA (10 mg/ml) at 25° C. for 45 min in the assay buffer. The SPA (5 mg/ml) coupled with membranes (37.5 μg/ml) was then incubated with 0.1 nM [^35S] GTPγS in the same Tris buffer containing 100 μM GDP in total volume of 200 μl. Increasing concentrations of receptor agonists were used to stimulate [^35S] GTPγS binding. The basal binding was tested in the absent agonists and no specific binding was tested in the present 10 μM unlabeled GTPγS. The data were analyzed on a Top counter.
# [formula] % Inhibition=(% stimulation by 1 μM SNC80−% stimulation by 1 μM SNC80 in presence of test compound)×100/(% Stimulation by 1 μM SNC80−100) % of Basal=(stimulate−non specific)*100/(basal−non specific). EC50 values were calculated using GraphPad Prism.
# male CD-1 mice = experiment: In Vivo Assay: Upper GI Tract Transit (MUGIT); settings: dose 30 (mg), p.o.
# Procedure: Methods: The animals used in these studies were male CD-1 mice, ave. wt. ˜30 g. Mice were housed under 12 h/12 h light/dark cycle, food & water ad lib. On the day of the experiment mice were assigned to experimental groups, including one vehicle-only group (=control). At 30 min before administration of carmine dye, animals were dosed with vehicle or vehicle-plus-compound, mice were returned to their home cages after drug administration. After administration of carmine, the animals were either returned to their home cages (non-stressed) or individually placed in the same metal cages as used in the fecal output or entire GI tract transit to induce a novel environment stress. One hour after administration of carmine, mice were sacrificed by cervical dislocation, the abdomen opened midventrally, the small intestine from pylorus to cecum was removed, the mesentery divided in order to lay the intestine straight & flat—without stretching. The total length of intestine and the length of carmine-dyed intestine were measured in order to determine the percent of the upper GI tract over which transit had occurred as follows: {(Length of carmine-dyed intestine)/(Total length of intestine)}×100=% upper GI transit. The data expressed were group means±SD (or s.e.m.) and data expressed as % of control.
structure (smiles),measurement,setting,value
C[C@@H](c1nc(-c2ccccc2)c[nH]1)N(Cc1cccc(C(=O)O)c1)C(=O)[C@@H](N)Cc1ccc(C(N)=O)cc1,Ki,delta opioid receptor [1],1.03 nM
same,Ki,delta opioid receptor [2],4.47 nM
same,Ki,mu opioid receptor,1.37 nM
same,Ki,human mu opioid receptor,3.27 nM
same,DOR GTP-binding Assay v2 (% I),[3]; % inhibition of agonist-stimulated GTPγS binding,63.51%
same,EC50,"[3]; read-out: DOR GTP-binding Assay_v2_ EC50, [35S]GTPγS",1000 nM
same,upper GI transit (% ctrl),male CD-1 mice,96.5 % ctrl
